According to PubChem BioAssay AID889 (National Center for Advancing Translational Sciences (NCATS), 2007):
Values joined by “and” are separate entries in the source; they are usually repeats but may differ in a detail not shown here. Equal values may be shown once. This is a selection; strong and weak results do not stand in their true shares. Records with an inconclusive call do not appear. Active and inactive are the calls of the source. The call rests on the fitted dose curve; in most records, active means well fitted inhibition curve with a large enough effect in the main read-out, with a control signal flat (not every such curve was filed as active); inconclusive means small, poorly fitted or top-dose-only effect, or a change in a side signal; inactive means flat fitted curve, though single readings scatter.

Amino acid sequences for entries named in this document (tags omitted). A change or cut given only in a name is not applied to a line headed by its entry.
UniProt P55210: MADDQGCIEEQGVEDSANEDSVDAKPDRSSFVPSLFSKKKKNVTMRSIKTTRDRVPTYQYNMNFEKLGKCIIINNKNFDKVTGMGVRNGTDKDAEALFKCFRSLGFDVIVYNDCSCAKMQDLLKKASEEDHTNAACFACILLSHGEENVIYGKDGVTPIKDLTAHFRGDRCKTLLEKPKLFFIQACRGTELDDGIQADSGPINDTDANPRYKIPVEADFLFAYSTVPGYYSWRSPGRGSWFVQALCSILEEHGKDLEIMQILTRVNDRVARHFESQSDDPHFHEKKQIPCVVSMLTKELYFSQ

Target: Caspase-7 (Homo sapiens) (UniProt P55210)
Experiment: qHTS Assay for Allosteric/Competitive Inhibitors of Caspase-7; further: % of control where 0% means no effect
Details: recombinant caspase-7, Ac-DEVD-AFC fluorescence rate
Text: NIH Molecular Libraries Screening Centers Network [MLSCN]
NIH Chemical Genomics Center [NCGC]
PI Name: Dr. James Wells,
Dr. Enrique Perez-Paya, Dr.Janice Williams, Dr. Dennis Wolan, a person
The caspases (Cysteine Aspartyl Protease) comprise a related family of 14 dimeric proteases that are critical mediators of apoptosis (programmed cell death) and inflammation. The caspases represent an important class of drug targets for stroke, ischemia, cancer and inflammatory diseases. […] One goal of this project was to identify compounds that act as allosteric inhibitors via stabilizing the procaspase form of the enzyme. Previous work in Well's laboratory has shown that such allosteric inhibitors can be identified and these act by binding at the dimer interface of enzyme (Hardy, Lam et al., 2004).
The biochemical assay was configured using purified caspase 7 at a high enzyme concentration to promote formation of the homodimers and thus facilitate the identification of allosteric inhibitors. The overall goal was to identify reversible inhibitors with better drug-like properties than the currently available set of aspartyl-containing peptidomimetics that covalently bind the active site. Caspase 7 was assayed using the profluorescent substrate Ac-DEVD-AFC. After initiation of the assay with substrate the plates were rapidly read using an automated robotic system (Kalypsys, Inc.) to maintain consistent timing. A kinetic mode of detection was used where the initial rate was collected (estimated final product formation was ~10%). Compounds were screened as a concentration-titration series that ranged from 57 uM to 0.7 nM. Below is the protocol used for caspase 7.
NCGC Assay Protocol Summary:
Caspase 7 was prepared in buffer (50 mM HEPES pH 7.5, 50 mM KCl, 200 mM NaCl, 10 mM DTT, 0.1% CHAPS) at a concentration of 66.6 nM and 3 uL was dispensed to all wells using black solid Kalypsys 1536-well plates. 20 nL of DMSO containing compounds was added using a pin-tool (Kalypsys Inc.) to columns 5-48. Then 20 nL of DMSO solution from a control plate was added to columns 1-4. Controls were: Column 1, 16 point titration with each concentration in duplicate (1:1 dilutions in DMSO; final starting concentration was 57 uM) of the caspase 7 inhibitor Ac-DEVD-CHO (Alexis Biochemicals); Column 2, a 16 point titration with each concentration in duplicate of the free AFC fluorophore prepared in DMSO (Alexis Biochemicals), final starting was 40 uM; Column 3 neutral (DMSO only) control; Column 4: DMSO alone, to serve as a negative control (no substrate was added). Then 1 uL of 20 uM the substrate Ac-DEVD-AFC (Alexis Biochemicals) prepared in the same buffer was dispensed to all wells except columns 2 and 4 and the plates were immediately transferred (< 1 min) to the Viewlux. The plates were then exposed using 405 nm excitation/520 nm emission filters for 4 sec and read at 20 sec intervals for 3 min. Final enzyme concentration was 50 nM and the final substrate concentration was 5 uM.
Concentration-response curves were fitted to the data calculated from slope of the linear regression of fluorescent intensity versus time (the rate). The concentration-effect curves were then classified based on curve quality (r2), response magnitude and degree of measured activity. […] Inconclusive compounds had appreciable concentration-dependent effects on both the measured rate and the interpolated basal fluorescence intensity at the start of the reaction but where the basal fluorescent intensity was marginal (e.g. < 10-fold). Inconclusive compounds also encompass highly fluorescent compounds (>100-fold increases in fluorescent intensities values relative to controls) where artificial concentration-dependent decreases in the rate occurred at high compound concentrations due to fluorescent interferences.
Keywords: Caspase 7, proteases, profluorescent, MLSMR, MLSCN, NIH Roadmap, qHTS, NCGC

[1] = at 57.5 µM (top of the series) unless noted

SMILES: CN(C(=O)Cc1ccccc1)[C@@H]1CC[C@@]2(CCCO2)C[C@H]1N1CCCC1
- activity change, negative = inhibition [1]: inactive: 0.866%

SMILES: CCc1nc2c(n1)c1c(non1O)c1c2no[n+]1[O-]
- activity change, negative = inhibition [1]: inactive: -0.648%

SMILES: O=C(CO)Nc1ccc([As](=O)(O)O)cc1
- activity change, negative = inhibition [1]: inactive: 0.208% [at 11.5 µM]

SMILES: O=[N+]([O-])c1ccc(C[As](=O)(O)O)cc1
- activity change, negative = inhibition [1]: inactive: 0.154% [at 11.5 µM]

SMILES: Cc1c2non([O-])c-2c(C)[n+](=O)[n+]1[O-]
- activity change, negative = inhibition [1]: inactive: 0.735%

SMILES: NCC[C@@H](N)CSP(=O)(O)O
- activity change, negative = inhibition [1]: inactive: -0.217% [at 11.5 µM]

SMILES: CN(C(=O)Cc1ccc(Cl)c(Cl)c1)[C@H]1CCCC[C@@H]1N1CCCC1
- activity change, negative = inhibition [1]: inactive: -0.882% and inactive: 0.261% and inactive: -1.39%

SMILES: [N-]=[N+]=NCC(O)CN=[N+]=[N-] (configuration not stated)
- activity change, negative = inhibition [1]: inactive: 2.25% [at 11.5 µM]

SMILES: C(Cc1nn[nH]n1)c1nn[nH]n1
- activity change, negative = inhibition [1]: inactive: 1.67% [at 11.5 µM]

SMILES: COC(=O)c1cc2c(s1)N=C(c1ccccc1)N(C)P2(=O)N1CCOCC1 (configuration not stated)
- activity change, negative = inhibition [1]: inactive: 0.374%

SMILES: O=P1(Nc2nc3ccc(Cl)cc3s2)COc2ccccc2O1 (configuration not stated)
- activity change, negative = inhibition [1]: inactive: -0.347%

SMILES: O=P(Nc1nccs1)(c1ccccc1)c1ccccc1
- activity change, negative = inhibition [1]: inactive: 1.53%

SMILES: c1nnnn1CCn1cnnn1
- activity change, negative = inhibition [1]: inactive: -2.43%

SMILES: CN1CCC[C@H](OC(=O)C(c2ccccc2)c2ccccc2)C1
- activity change, negative = inhibition [1]: inactive: 3.64% [at 11.5 µM]

SMILES: C[C@@H](O)COc1ccc([As](=O)(O)O)cc1N
- activity change, negative = inhibition [1]: inactive: 1.3% [at 11.5 µM]

SMILES: Cc1cc([N+](=O)[O-])cc([N+](=O)[O-])c1O
- activity change, negative = inhibition [1]: inactive: -5.28%

SMILES: [N-]=[N+]=Nc1ccc([As](=O)(O)O)cc1
- activity change, negative = inhibition [1]: inactive: 1.39% [at 11.5 µM]

SMILES: O=C(OC1CN2CCC1CC2)c1cccc(Cl)c1 (configuration not stated)
- activity change, negative = inhibition [1]: inactive: 1.15%

SMILES: Cc1nn(-c2ccccc2)c2c1P(=O)(N1CCOCC1)N(C)C(c1ccccc1)=N2 (configuration not stated)
- activity change, negative = inhibition [1]: inactive: 6.57%

SMILES: O=P1(Nc2ncccn2)COc2ccccc2OC1
- activity change, negative = inhibition [1]: inactive: 0.168%

SMILES: O=P1(Nc2ccc(Br)cn2)COc2ccccc2OC1
- activity change, negative = inhibition [1]: inactive: 2.63%

SMILES: O=P1(Nc2ccccn2)COc2ccccc2OC1
- activity change, negative = inhibition [1]: inactive: 0.389%

SMILES: CN(CCCl)Cc1cc(Cl)c(NC2=NCCN2)c(Cl)c1
- activity change, negative = inhibition [1]: inactive: 0.705%

SMILES: Clc1n[nH]nc1-c1nn[nH][15n]1
- activity change, negative = inhibition [1]: inactive: -0.33%

SMILES: CN(C(=O)Cc1ccc(Cl)c(Cl)c1)[C@@H]1CCCC[C@H]1N1CCCC1
- activity change, negative = inhibition [1]: inactive: 0.733% [middle of 4 runs]

SMILES: NS(=O)(=O)Cc1ccc([As](=O)(O)O)cc1
- activity change, negative = inhibition [1]: inactive: -2.06% [at 11.5 µM]

SMILES: O=C(CC(=O)c1ccccc1)O[C@H]1CN2CCC1CC2
- activity change, negative = inhibition [1]: inactive: -0.0021% [at 11.5 µM]

SMILES: CN(C(=O)Cc1ccc(Cl)c(Cl)c1)[C@@H]1CC[C@@]2(CCCO2)C[C@H]1N1CCCC1
- activity change, negative = inhibition [1]: inactive: 1.85%

SMILES: O=P(Nc1nccs1)(c1ccccc1)c1nc2ccccc2s1 (configuration not stated)
- activity change, negative = inhibition [1]: inactive: 1.24%

SMILES: CCOP1(=S)c2c(C)nn(CCC#N)c2N=C(c2ccccc2F)N1C (configuration not stated)
- activity change, negative = inhibition [1]: inactive: -7.05%

SMILES: O=[As](O)(O)c1ccc([As](=O)(O)O)cc1
- activity change, negative = inhibition [1]: inactive: 1.06% [at 11.5 µM]

SMILES: NC(=O)Nc1ccc([As](=O)(O)O)cc1
- activity change, negative = inhibition (at 25.7 µM (top of the series)): inactive: 3.63%
- activity change, negative = inhibition (at 57.5 µM (top of the series)): inactive: -1.07%

SMILES: CCOP1(=S)c2c(C)nn(CCC#N)c2N=C(c2ccc(F)cc2)N1C (configuration not stated)
- activity change, negative = inhibition [1]: inactive: 7.5%

SMILES: O=[As]c1ccc(S(=O)(=O)NCCO)cc1 (configuration not stated)
- activity change, negative = inhibition [1]: inactive: -0.148% [at 11.5 µM]

SMILES: [N-]=[N+]=NCC(N)=O
- activity change, negative = inhibition [1]: inactive: 1.81% [at 11.5 µM]

SMILES: O=C(OC1CN2CCC1CC2)C12CC3CC(CC(C3)C1)C2 (configuration not stated)
- activity change, negative = inhibition [1]: inactive: -0.0365%

SMILES: NC(=O)Nc1cc([As](=O)(O)O)cc(I)c1O
- activity change, negative = inhibition [1]: inactive: -3.77% [at 11.5 µM]

SMILES: COP1(=S)c2c(C)nn(CCC#N)c2N=C(c2ccc(F)cc2)N1C (configuration not stated)
- activity change, negative = inhibition [1]: inactive: 6.42%

SMILES: O=C(COc1ccccc1)OC1CN2CCC1CC2 (configuration not stated)
- activity change, negative = inhibition [1]: inactive: -1.01%

SMILES: O=C(O)[C@@H](O)c1ccc([As](=O)(O)O)cc1
- activity change, negative = inhibition [1]: inactive: -0.943% [at 11.5 µM]

SMILES: CN(N=O)C(=N)N[N+](=O)[O-]
- activity change, negative = inhibition [1]: inactive: 0.271%
